This note sets out measurements from patent US11578074B2, “Nitrogenous heterocyclic compound, preparation method, intermediate, composition, and application” (SHANGHAI PHARMACEUTICALS HOLDING CO., LTD., priority 2017, dated 2023).

Chains of the proteins cited; added tags and fusions are not shown. Residues count along the entry.
UniProt P00533, 25-1210: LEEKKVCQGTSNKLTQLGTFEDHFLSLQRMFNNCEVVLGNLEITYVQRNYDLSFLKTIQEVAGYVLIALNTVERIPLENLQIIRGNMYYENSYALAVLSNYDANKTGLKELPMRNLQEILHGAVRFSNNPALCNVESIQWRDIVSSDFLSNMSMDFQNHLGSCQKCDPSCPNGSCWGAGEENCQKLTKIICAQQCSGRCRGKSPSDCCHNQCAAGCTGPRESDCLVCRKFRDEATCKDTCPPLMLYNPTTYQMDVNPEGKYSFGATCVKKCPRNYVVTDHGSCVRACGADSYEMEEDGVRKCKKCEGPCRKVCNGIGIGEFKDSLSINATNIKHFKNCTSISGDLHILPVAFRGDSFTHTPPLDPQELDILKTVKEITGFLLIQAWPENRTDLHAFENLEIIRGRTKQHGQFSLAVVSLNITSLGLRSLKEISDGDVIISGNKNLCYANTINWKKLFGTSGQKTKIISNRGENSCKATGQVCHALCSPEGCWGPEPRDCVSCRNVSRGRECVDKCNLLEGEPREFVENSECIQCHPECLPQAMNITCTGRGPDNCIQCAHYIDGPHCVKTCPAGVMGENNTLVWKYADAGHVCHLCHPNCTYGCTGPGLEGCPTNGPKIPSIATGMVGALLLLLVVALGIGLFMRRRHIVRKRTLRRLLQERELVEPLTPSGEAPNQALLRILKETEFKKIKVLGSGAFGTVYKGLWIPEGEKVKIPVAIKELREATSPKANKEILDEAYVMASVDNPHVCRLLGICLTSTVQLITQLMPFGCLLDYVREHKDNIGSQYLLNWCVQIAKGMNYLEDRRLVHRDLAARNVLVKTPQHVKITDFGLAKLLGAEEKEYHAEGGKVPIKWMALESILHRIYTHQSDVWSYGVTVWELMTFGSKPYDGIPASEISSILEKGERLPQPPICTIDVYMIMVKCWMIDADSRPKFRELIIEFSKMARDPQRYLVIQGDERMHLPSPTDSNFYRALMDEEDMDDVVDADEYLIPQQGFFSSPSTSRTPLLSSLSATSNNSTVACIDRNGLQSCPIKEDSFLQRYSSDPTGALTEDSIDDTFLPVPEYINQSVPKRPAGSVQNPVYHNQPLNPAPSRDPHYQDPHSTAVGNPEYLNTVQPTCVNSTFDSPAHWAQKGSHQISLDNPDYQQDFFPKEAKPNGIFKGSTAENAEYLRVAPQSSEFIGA

In general, IC50 refers to the concentration needed to halve the response being measured.

Molecules are shown by their SMILES.

The target of this assay is EGFR kinase (Homo sapiens, UniProt P00533). The experiment in a line: EGFR/ErbB2 enzymatic experiment (HTRF kinEASE-TK), EGFR. (TR-FRET usually uses a lanthanide donor and a delayed reading to cut background.)

Consider `CCOc1cc2ncc(C#N)c(Nc3ccc(OCc4ccccn4)c(Cl)c3)c2cc1NC(=O)/C=C/[C@H]1CCCN1C` [drawing 239, reference compound], for which the IC50 stood at 0.26 nM.
